The values that follow are results of earlier work, collected in US20220331309A1, “PHARMACEUTICAL COMPOSITION FOR TREATING INSOMNIA” (priority 2019, published 2022).

The structures appear in SMILES notation.

This series deals with CYP3A. The settings on record: FDA guidance classification; cited from earlier work.

As for `CNCCC(Oc1ccc(C(F)(F)F)cc1)c1ccccc1` (stereo not shown) [Fluoxetine, fluoxetine], the “Classification of CYP3A inhibiting action of drug used in combination” value was “Weak (increases the AUC of CYP3A in the metabolism of a substrate 1.25-fold or more and less than twofold)”.
